Amino acid sequences for entries named in this document (tags omitted). Residues count along the entry.
UniProt P08246, 30-267: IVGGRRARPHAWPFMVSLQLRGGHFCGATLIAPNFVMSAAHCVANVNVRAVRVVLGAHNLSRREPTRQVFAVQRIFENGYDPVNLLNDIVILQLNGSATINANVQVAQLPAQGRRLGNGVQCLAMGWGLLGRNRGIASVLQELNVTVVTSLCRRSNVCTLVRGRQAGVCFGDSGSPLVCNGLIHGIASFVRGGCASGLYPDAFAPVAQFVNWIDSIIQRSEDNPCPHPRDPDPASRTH

According to patent US9073833B1, “Oxime-based compound, pharmaceutical composition containing the same and method for preparing the same” (Chang Gung University, priority 2014, dated 2015):

What was measured:
[1] = target: human neutrophil elastase (Homo sapiens (Human), UniProt P08246); test: Inhibition of human neutrophil elastase activity (MeO-Suc-Ala-Ala-Pro-Val-p-nitroanilide, OD405); assay type: biochemical; settings: mean ± SEM (n = 3), 30° C., 30 minutes
[2] = test system: human neutrophil elastase (NE) release, human neutrophils; test: Release of human neutrophil elastase from FMLP/CB-activated human neutrophils; settings: read-out: IC50 (release of human neutrophil elastase)

## CC(C)(C)C(=O)Oc1ccc(S(=O)(=O)Nc2ccccc2C(=O)NCC(=O)O)cc1 [Sivelestat, reference compound]
[1]
  IC50: 65 ± 4.26 µM
[2]
  IC50: 0.05 ± 0.001 µM

## C/C(=N\O)c1ccccc1NS(=O)(=O)c1ccc(OC(=O)C(C)(C)C)cc1 [Compound 1, (E)-4-(N-(2-(1(hydroxyimino)ethyl)phenyl)sulfamoyl)phenyl pivalate]
[1]
  IC50: 51.3 ± 7.88 µM
